Columns and labels:
Experiment in all cases: Radioligand Binding Assay
Settings in all cases: pH 7.4
Nociceptin receptor = Nociceptin receptor (Homo sapiens, UniProt P41146)
[1] = target: Delta-type opioid receptor (Homo sapiens, UniProt P41143)
[2] = target: Kappa-type opioid receptor (Homo sapiens, UniProt P41145)
Mu-type opioid receptor = Mu-type opioid receptor (Homo sapiens, UniProt P35372)

Structure (SMILES) | Ki (Nociceptin receptor) [nM] | Ki [1] [nM] | Ki [2] [nM] | Ki (Mu-type opioid receptor) [nM]
O=c1ccc(Nc2nc3ccccc3n(C3CCN(C4CCCCCCC4)CC3)c2=O)c[nH]1 | 46.3 | 46700 |  | 
CCOC(=O)c1nc2ccccc2n([C@H]2C[C@H]3CCC[C@@H](C2)N3C2CCCCCCC2)c1=O |  |  | 46.3 | 
O=c1c(N2CC3CNCC3C2)nc2ncccc2n1C1CCN(C2CCCCCCC2)CC1 (stereo unspecified) |  | 29200 | 130 | 196
O=C(O)C1(Nc2nc3ccccc3n([C@H]3C[C@H]4CC[C@@H](C3)N4C3CCCCCCC3)c2=O)CCCCC1 | 237 |  |  | 
O=C(O)C(=O)N1CC2CN(c3nc4ccccc4n(C4CCN(C5CCCCCCC5)CC4)c3=O)CC2C1 (stereo unspecified) |  | > 20000 | 488 | 2920
O=C(O)CN1CC2CN(c3nc4ccccc4n([C@H]4C[C@H]5CC[C@@H](C4)N5C4CCCCCCC4)c3=O)CC2C1 (stereo partly specified) | 15.8 |  |  | 
CS(=O)(=O)NC(=O)c1nc2ccccc2n(C2CCN(C3CCCCCCC3)CC2)c1=O | 375 |  |  | 
O=c1c(N2CCc3ccccc32)nc2ccccc2n1C1CCN(C2CCCCCCC2)CC1 |  |  | 375 | 
N#CNC(=O)c1nc2ccccc2n(C2CCN(C3CCCCCCC3)CC2)c1=O | 273 |  |  | 
O=C(O)c1nc2ccccc2n([C@H]2C[C@H]3CC[C@@H](C2)N3C2CCCCCCCCC2)c1=O | 2.5 |  |  | 
CCOC(=O)c1nc2ccccc2n([C@H]2C[C@H]3COC[C@@H](C2)N3C2CCCCCCC2)c1=O | 911 |  |  | 
NC(=O)[C@H](CO)Nc1nc2ccccc2n([C@@H]2C[C@H]3CC[C@@H](C2)N3C2CCCCCCC2)c1=O |  |  | 5350 | 
O=c1c(N2CCc3ccccc3C2)nc2ccccc2n1C1CCN(C2CCCCCCC2)CC1 | 42.3 |  |  | 
O=C(O)c1nc2ccccc2n([C@H]2C[C@H]3CCC[C@@H](C2)N3C2C3CCCC2CCC3)c1=O (stereo partly specified) | 8.5 |  |  | 3430
CC(C)(Nc1nc2ccccc2n([C@H]2C[C@H]3CC[C@@H](C2)N3C2CCCCCCC2)c1=O)C(=O)O |  |  | 890 | 8900
O=C(O)[C@H](CO)Nc1nc2ccccc2n(C2CCN(C3CCCCCCC3)CC2)c1=O |  |  | 544 | 
O=C(O)C1CCN(c2nc3ccccc3n([C@H]3C[C@H]4CC[C@@H](C3)N4C3CCCCCCC3)c2=O)CC1 |  |  |  | 1670
O=C(NO)c1nc2ccccc2n([C@H]2C[C@H]3CC[C@@H](C2)N3C2CCCCCCC2)c1=O | 2.7 |  |  | 
O=C(O)c1nc2ccccc2n([C@H]2C[C@H]3CCC[C@@H](C2)N3C2CCCCCCCCC2)c1=O | 1.8 |  |  | 
CCOC(=O)c1nc2ccccc2n([C@H]2C[C@H]3CC[C@@H](C2)N3C2CCCCCCC2)c1=O | 22.2 |  |  | 
CCCC1(N2CCC(n3c(=O)c(C(=O)O)nc4ccccc43)CC2)CCCCCCC1 | 45.5 |  |  | 
NC(=O)C1(N2CCC(n3c(=O)c(N4CC5CNCC5C4)nc4ccccc43)CC2)CCCCCCC1 (stereo unspecified) | 44.6 |  |  | 
CC(=O)N[C@@H]1CCN(c2nc3ccccc3n(C3CCN(C4CCCCCCC4)CC3)c2=O)C1 |  |  | 222 | 
O=C(O)CC1CCN(c2nc3ccccc3n([C@H]3C[C@H]4CC[C@@H](C3)N4C3CCCCCCC3)c2=O)C1 (stereo partly specified) |  |  | 1200 | 
O=C(O)c1nc2ccccc2n([C@H]2C[C@H]3CCC[C@@H](C2)N3C2CCCCCCCC2)c1=O | 1.4 |  | 375 | 

Structure (SMILES) | Ki (Nociceptin receptor) [nM] | Ki [1] [nM] | Ki [2] [nM] | Ki (Mu-type opioid receptor) [nM]
O=C(O)CNc1nc2ccccc2n(C2CCN(C3CCCCCCC3)CC2)c1=O | 368 |  |  | 
O=C(O)C1CCN(CCNc2nc3ccccc3n([C@H]3C[C@H]4CC[C@@H](C3)N4C3CCCCCCC3)c2=O)CC1 | 34.7 |  |  | 
O=C(O)[C@H](CO)Nc1nc2ccccc2n([C@@H]2C[C@H]3CC[C@@H](C2)N3C2CCCCCCC2)c1=O | 285 |  |  | 
NC(=O)CN(CCNc1nc2ccccc2n([C@H]2C[C@H]3CC[C@@H](C2)N3C2CCCCCCC2)c1=O)CC(=O)O | 16.8 |  |  | 
O=C1CN(C2CCN(C3CCCCCCC3)CC2)c2ccccc2N1 |  | 9670 |  | 
O=C(NO)c1nc2ccccc2n(C2CCN(C3CCCCCCC3)CC2)c1=O |  |  | 2730 | 5570
CC(=O)NC1CCN(c2nc3ccccc3n(C3CCN(C4CCCCCCC4)CC3)c2=O)CC1 | 60.8 |  |  | 
CS(=O)(=O)NCCNc1nc2ccccc2n(C2CCN(C3CCCCCCC3)CC2)c1=O |  | 44100 | 905 | 
O=C(O)c1nc2ccccc2n(C2CCN(C3CCCCCCC3)CC2)c1=O |  |  | 1030 | 
O=C(O)C1(O)CCN(c2nc3ccccc3n([C@H]3C[C@H]4CC[C@@H](C3)N4C3CCCCCCC3)c2=O)C1 (stereo partly specified) |  |  | 1650 | 
O=C(O)Cc1nc2ccccc2n([C@H]2C[C@H]3CCC[C@@H](C2)N3C2CCCCCCC2)c1=O | 189 | 35600 | 19200 | 12800
O=c1c(N2CC[C@@H](O)C2)nc2ccccc2n1C1CCN(C2CCCCCCC2)CC1 |  | 35000 |  | 
O=C(NC(Cc1ccccc1)C(=O)O)c1nc2ccccc2n([C@H]2C[C@H]3CC[C@@H](C2)N3C2CCCCCCC2)c1=O (stereo partly specified) |  |  | 49.7 | 
O=C(O)C1CCCN1c1nc2ccccc2n(C2CCN(C3CCCCCCC3)CC2)c1=O (stereo unspecified) | 309 |  |  | 
O=C(NC(Cc1c[nH]cn1)C(=O)O)c1nc2ccccc2n([C@H]2C[C@H]3CC[C@@H](C2)N3C2CCCCCCC2)c1=O (stereo partly specified) | 33.5 |  | 130 | 368
C=CCNc1nc2ccccc2n(C2CCN(C3CCCCCCC3)CC2)c1=O |  |  | 852 | 
CC(C)(C)OC(=O)N1CC2CN(c3nc4ccccc4n(C4CCN(C5CCCCCCC5)CC4)c3=O)CC2C1 (stereo unspecified) |  |  | 136 | 
O=C(O)c1nc2ccccc2n([C@H]2C[C@H]3CCC[C@@H](C2)N3C23CC4CC(CC(C4)C2)C3)c1=O | 47.5 |  | 5620 | 
CC1(N2CCC(n3c(=O)c(C(=O)O)nc4ccccc43)CC2)CCCCCCC1 | 18.1 |  | 1120 | 
O=C(O)[C@@H](CO)Nc1nc2ccccc2n([C@H]2C[C@H]3CC[C@@H](C2)N3C2CCCCCCC2)c1=O |  |  |  | 770
COc1ccc(Nc2nc3ccccc3n(C3CCN(C4CCCCCCC4)CC3)c2=O)cn1 |  |  | 46.3 | 
O=C(O)c1nc2ccccc2n([C@H]2C[C@H]3CCC[C@@H](C2)N3C2CCCCCCC2)c1=O | 17.7 |  | 440 | 679
O=C(O)CN(CCNc1nc2ccccc2n([C@H]2C[C@H]3CC[C@@H](C2)N3C2CCCCCCC2)c1=O)CC(=O)O | 4.4 |  |  | 1080
CC(=O)NC1(C(=O)O)CCN(c2nc3ccccc3n([C@H]3C[C@H]4CC[C@@H](C3)N4C3CCCCCCC3)c2=O)CC1 | 158 |  | 256 | 
O=C1NC(=O)C2(CCN(c3nc4ccccc4n([C@H]4C[C@H]5CC[C@@H](C4)N5C4CCCCCCC4)c3=O)CC2)N1 |  |  | 67 | 

From BindingDB's records for US8846929
